Laboratory results reported in publication PMC5834697 (Proceedings of the National Academy of Sciences of the …, 2018).

By UniProt entry, the sequences of proteins in these tests, tags left out.
UniProt P08183, whole entry: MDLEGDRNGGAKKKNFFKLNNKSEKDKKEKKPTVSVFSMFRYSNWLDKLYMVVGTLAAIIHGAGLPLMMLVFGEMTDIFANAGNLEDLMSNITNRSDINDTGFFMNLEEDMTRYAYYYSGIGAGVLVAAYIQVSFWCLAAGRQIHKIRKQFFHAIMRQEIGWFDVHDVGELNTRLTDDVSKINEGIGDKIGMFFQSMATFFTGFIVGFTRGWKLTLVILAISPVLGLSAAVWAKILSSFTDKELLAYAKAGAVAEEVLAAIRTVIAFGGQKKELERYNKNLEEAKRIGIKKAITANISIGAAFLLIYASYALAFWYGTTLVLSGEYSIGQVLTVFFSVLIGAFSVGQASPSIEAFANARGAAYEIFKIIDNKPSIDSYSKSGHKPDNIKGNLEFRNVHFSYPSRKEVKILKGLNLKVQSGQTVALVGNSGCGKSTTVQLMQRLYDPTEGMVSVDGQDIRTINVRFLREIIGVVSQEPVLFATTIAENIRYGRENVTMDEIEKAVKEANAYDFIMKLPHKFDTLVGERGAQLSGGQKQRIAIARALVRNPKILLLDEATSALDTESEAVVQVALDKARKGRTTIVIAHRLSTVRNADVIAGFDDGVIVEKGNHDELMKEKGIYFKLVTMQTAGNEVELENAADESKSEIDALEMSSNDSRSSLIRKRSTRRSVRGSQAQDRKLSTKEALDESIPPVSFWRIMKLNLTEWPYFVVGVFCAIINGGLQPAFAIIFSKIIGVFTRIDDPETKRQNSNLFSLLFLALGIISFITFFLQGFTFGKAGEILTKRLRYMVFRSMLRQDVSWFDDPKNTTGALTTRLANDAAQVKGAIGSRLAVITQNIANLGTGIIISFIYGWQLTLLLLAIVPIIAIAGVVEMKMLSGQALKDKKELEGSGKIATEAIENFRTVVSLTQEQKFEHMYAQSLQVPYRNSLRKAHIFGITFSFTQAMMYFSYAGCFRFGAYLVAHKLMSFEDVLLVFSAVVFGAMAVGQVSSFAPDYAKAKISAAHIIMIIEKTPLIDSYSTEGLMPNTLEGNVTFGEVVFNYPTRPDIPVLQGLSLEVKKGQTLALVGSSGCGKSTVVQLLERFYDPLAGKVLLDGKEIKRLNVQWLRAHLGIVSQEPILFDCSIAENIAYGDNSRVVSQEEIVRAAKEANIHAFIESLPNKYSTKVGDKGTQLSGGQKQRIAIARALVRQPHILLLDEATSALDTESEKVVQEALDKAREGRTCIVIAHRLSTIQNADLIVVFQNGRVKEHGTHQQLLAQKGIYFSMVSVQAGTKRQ

Target: human ABCB1 (P-glycoprotein), Avi-tagged and biotinylated (Homo sapiens, UniProt P08183, biotin (BirA, on the Avi tag))
Experiment: ELISA

B1: UIC2 antibody (antibody, V domains shown)
VH: EVQLQESGPELVKTGASVKISCKASGYSFSNYYIHWVKQSHGKSLEWIGFISCYNGATFYNQKFKGKATFTVDNSSSTAYMKFNSLTFEDSAVYYCARLPIQFGNFYPMDYWGQGTTVTVSS
VL: QVVMTQSPLSLPVSLGDQASISCRSSQSLLHSNGNTYLHWYLQKPGQSPKLLIYKVSNRFSGVPDRFSGSGSGTDFTLKISRVEAEDLGVYFCSQSTHIPPWTFGGGTKLDIK
binding result: binds
